The source of these data is PubChem BioAssay AID1688 (National Center for Advancing Translational Sciences (NCATS), 2009).

Only a part is listed here, and it is no random draw. Inconclusive results are not listed. The source made the active and inactive calls. Calls come from the whole dose curve; as a rule, active = well fitted inhibition curve with a large enough effect; inconclusive = small, poorly fitted or top-dose-only effect, or effect the other way; inactive = no such curve, though single readings can be large or run the other way.
% is set by controls: 0 for no effect and ±100 for the full control effect.

The nature of the experiment: qHTS Multiplex Assay to Identify Dual Action Probes in a Cell Model of Huntington: Aggregate Formation (GFP). Note: nearly all actives have a fitted effect of over 60% in size. The conditions noted are these: PC12 HttQ103-GFP aggregates, Acumen cytometry, 40 h; at 46.1 µM (top of the series) unless noted. In general terms: qHTS replaces the single test concentration by a dilution series.
Turning to `CCOC(=O)c1ccc(NP(C)(=O)Oc2cc(C)cc(C)c2)cc1` (centres undefined), the activity change, negative = inhibition was inactive: -4.42%.

In the case of `COc1ccccc1OP(C)(=O)Nc1cccc(Br)c1` (centres undefined), the activity change, negative = inhibition was inactive: 8.65% [at 9.22 µM].

With `O=[N+]([O-])[O-].[NH4+]`, the activity change, negative = inhibition is inactive: 0.268%.

Turning to `CCN(CC)CCCOC(=O)C(O)(c1ccccc1)c1ccccc1`, the activity change, negative = inhibition was inactive: 1.11%.

Take `COc1ccccc1OP(C)(=O)Nc1cc(Cl)ccc1C` (centres undefined): the activity change, negative = inhibition was inactive: 5.82% [at 9.22 µM].

Take `COc1ccc(OP(C)(=O)Nc2cccc(F)c2)cc1` (centres undefined): the activity change, negative = inhibition is inactive: 3.15% [at 9.22 µM].

Turning to `Cc1cc(C)cc(OP(C)(N)=O)c1` (centres undefined), the activity change, negative = inhibition was inactive: 18%.

In the case of `CCOC(=O)c1ccc(NP(C)(=O)Oc2ccccc2)cc1` (centres undefined), the activity change, negative = inhibition was inactive: 13.1%.

Regarding `COc1ccccc1OP(C)(=O)Nc1ccc(C)cc1` (centres undefined), the activity change, negative = inhibition is inactive: 20.4%.

For `Cc1ccc(NP(C)(=O)Oc2ccccc2)c(C)c1` (centres undefined), the activity change, negative = inhibition is inactive: -7.32%.

Turning to `Cc1cccc(C)c1OP(C)(N)=O` (centres undefined), the activity change, negative = inhibition was inactive: 11.8%.

`COc1ccccc1OP(C)(=O)Nc1ccccc1` (centres undefined): the activity change, negative = inhibition is inactive: 8.41%.

Turning to `CP(=O)(Nc1ccccc1Br)Oc1ccccc1` (centres undefined), the activity change, negative = inhibition was inactive: -6.29%.

As to `CP(=S)(Nn1cnnc1)Oc1ccccc1` (centres undefined), the activity change, negative = inhibition is inactive: -0.375%.

For the molecule `CP(=O)(Nc1ccccn1)Oc1ccc(Cl)cc1` (centres undefined), the activity change, negative = inhibition is inactive: 14.6%.

As for `CCOP(C)(=S)SCC(=O)NC(C)C(=O)O` (centres undefined), the activity change, negative = inhibition was inactive: 6.24%.

Turning to `CCOC(=O)c1ccc(NP(C)(=O)Oc2ccc(OC)cc2)cc1` (centres undefined), the activity change, negative = inhibition was inactive: 8.28%.

On to `CN(C)CCS`, for which the activity change, negative = inhibition was inactive: -1.75%.

Turning to `CP(=O)(NC(=O)Nc1ccccc1)Oc1ccccc1` (centres undefined), the activity change, negative = inhibition was inactive: -2.07%.

For `CCc1ccc(OP(C)(=O)N2CCN(c3ccc([N+](=O)[O-])cc3)CC2)cc1` (centres undefined), the activity change, negative = inhibition was inactive: -17.5% [at 9.22 µM].

As for `Cc1cc(C)cc(OP(C)(=O)Nc2ccc(SC(F)(F)F)cc2)c1` (centres undefined), the activity change, negative = inhibition is inactive: 0.317%.

For `Cc1cccc(C)c1OP(C)(=O)Nc1ccc(SC(F)(F)F)cc1` (centres undefined), the activity change, negative = inhibition was inactive: -22.7%.

For the molecule `CP(=O)(Nc1ccc(SC(F)(F)F)cc1)Oc1ccc(Cl)cc1` (centres undefined), the activity change, negative = inhibition is inactive: -9.5% [at 9.22 µM].

Consider `CP(=O)(Oc1ccccc1)OC(c1ccccc1)C(F)(F)F` (centres undefined), for which the activity change, negative = inhibition is inactive: 12.6%.
